Among the data in ChEMBL document CHEMBL1130400, “Discovery of a novel, selective, and orally bioavailable class of thrombin inhibitors incorporating aminopyridyl moieties at the P1 position” (J Med Chem, 1997) are Ki values, retold here.

This test addresses Prothrombin (Homo sapiens, UniProt P00734). Description: In vitro inhibitory activity against human thrombin(IIa).

By Ki is commonly meant the equilibrium dissociation constant of an inhibitor or competing ligand from its target. Low values mean a stronger hold on the target, high ones a looser hold on the target.

Turning to `Cc1cc(N)nc(C)c1CNC(=O)[C@@H]1CCCN1C(=O)[C@H](N)C(C1CCCCC1)C1CCCCC1`, the Ki turned out to be 3.9 nM.
